Paper PMC7339037 (Journal of medicinal chemistry, 2017)

Test system: salmon sperm DNA
Settings: 25 mM MOPS pH 6.5

Row | Structure (SMILES) | DNA binding activity (displacement of Sybr-green DNA intercalator)
1 | CC1=NN(c2ccc(Cl)c(C(=O)O)c2)C(=O)/C1=C\c1ccc(-c2ccc(Cl)c(C(=O)OCc3ccccc3)c2)o1 [Compound 22] | DNA binding activity above their IC50 value concentrations
2 | CC1=NN(c2ccc(Cl)c(C(=O)O)c2)C(=O)/C1=C\c1ccc(-c2ccc(Cl)c(C(=O)OCc3ccccc3Cl)c2)o1 [Compound 24] | DNA binding activity above their IC50 value concentrations
3 | CC1=NN(c2cccc(C(=O)O)c2)C(=O)/C1=C\c1ccc(-c2ccc(Cl)c(C(=O)NCc3ccc(F)cc3)c2)o1 [Compound 34a, (Z)-3-(4-((5-(4-Chloro-3-((4-fluorobenzyl)carbamoyl)phenyl)furan-2-yl)methylene)-3-methyl-5-oxo-4,5-dihydro-1H-pyrazol-1-yl)-benzoic Acid] | no significant DNA binding activity
4 | CC1=NN(c2cccc(C(=O)O)c2)C(=O)/C1=C\c1ccc(-c2ccc(Cl)c(C(=O)NCC3CC3)c2)o1 [Compound 34d, (Z)-3-(4-((5-(4-Chloro-3-((cyclopropylmethyl)carbamoyl)phenyl)-furan-2-yl)methylene)-3-methyl-5-oxo-4,5-dihydro-1H-pyrazol-1-yl)benzoic Acid] | no significant DNA binding activity
5 | CC1=NN(c2ccc(C(=O)O)cc2)C(=O)/C1=C\c1ccc(-c2ccc(Cl)c(C(=O)NCc3ccc(F)cc3)c2)o1 [Compound 34i, (Z)-4-(4-((5-(4-Chloro-3-((4-fluorobenzyl)carbamoyl)phenyl)-furan-2-yl)methylene)-3-methyl-5-oxo-4,5-dihydro-1H-pyrazol-1-yl)benzoic Acid] | no significant DNA binding activity
6 | CC1=NN(c2ccc(C(=O)O)cc2)C(=O)/C1=C\c1ccc(-c2ccc(Cl)c(C(=O)NCC3CC3)c2)o1 [Compound 34k, (Z)-4-(4-((5-(4-Chloro-3-((cyclopropylmethyl)carbamoyl)phenyl)-furan-2-yl)methylene)-3-methyl-5-oxo-4,5-dihydro-1H-pyrazol-1-yl)benzoic Acid] | no significant DNA binding activity
7 | CC1=NN(c2ccc(C(=O)O)cc2)C(=O)/C1=C\c1ccc(-c2ccc(C(=O)NCc3ccc(F)cc3)cc2)o1 [Compound 39c, (Z)-4-(4-((5-(4-((4-Fluorobenzyl)carbamoyl)phenyl)furan-2-yl)-methylene)-3-methyl-5-oxo-4,5-dihydro-1H-pyrazol-1-yl)benzoic Acid] | no significant DNA binding activity
